# According to paper PMC3003327:
# Target: actin filaments (F-actin) of Acanthamoeba castellani cytoplasmic actin (Acanthamoeba castellani)
# Assay: single-filament TIRF capping-rate assay
substance,measurement,value
recombinant mouse capping protein α1β2 (MmCP α1β2) (from UniProt P47753;P47757-2) (complex),fold reduction of kon by VASP in 100 mM KCl,2.7 fold
same,kon with 50 nM VASP,1.9e+06 M⁻¹ s⁻¹
